Data: paper PMC2895947 (Neuropsychopharmacology : official publication of the …, 2010)

Amino acid sequences for entries named in this document (tags omitted).
UniProt P47746, whole entry: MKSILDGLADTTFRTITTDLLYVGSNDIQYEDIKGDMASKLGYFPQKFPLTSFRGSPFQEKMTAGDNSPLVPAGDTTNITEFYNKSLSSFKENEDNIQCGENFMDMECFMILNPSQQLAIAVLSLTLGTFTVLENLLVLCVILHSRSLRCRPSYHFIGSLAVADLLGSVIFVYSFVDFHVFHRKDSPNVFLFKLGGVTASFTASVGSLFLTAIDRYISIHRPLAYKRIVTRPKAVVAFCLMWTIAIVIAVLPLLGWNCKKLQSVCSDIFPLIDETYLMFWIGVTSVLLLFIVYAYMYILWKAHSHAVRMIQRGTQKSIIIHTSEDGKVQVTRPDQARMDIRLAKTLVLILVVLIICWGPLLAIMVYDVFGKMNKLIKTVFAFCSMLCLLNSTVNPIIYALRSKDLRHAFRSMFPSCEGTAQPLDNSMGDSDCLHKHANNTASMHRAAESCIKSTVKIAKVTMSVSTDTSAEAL

Experiments:
[1] = THC blood and brain levels, single bolus vs cumulative dosing; format: in vivo; settings: C57Bl/6J mice, mean ± SEM
[2] = target: T1, CB1 receptor (Mus musculus, UniProt P47746); format: biochemical, mice
[3] = target: T1, CB1 receptor; assay: [3H]WIN55,212-2 autoradiography in brain sections after subchronic treatment; format: binding; settings: FAAH−/− mice treated subchronically; 1 nM radioligand; mean ± SEM
[4] = target: T1, CB1 receptor; assay: Agonist-stimulated [35S]GTPγS binding in spinal cord membranes; format: biochemical, mice
[5] = FAAH−/− mice treated subchronically, WIN55,212-2 10 μM, mean ± SEM

CCCCCc1cc(O)c2c(c1)OC(C)(C)[C@@H]1CCC(C)=C[C@@H]21 [THC, Δ^9-tetrahydrocannabinol]
Blood THC level, single bolus ([1]; THC 3 mg/kg): 97 ± 14 ng/mL | Blood THC level, cumulative dosing ([1]; THC 10 mg/kg cumulative): 179 ± 23 ng/mL | Blood THC level, single bolus ([1]; THC 10 mg/kg): 209 ± 28 ng/mL | Blood THC level, cumulative dosing ([1]; THC 30 mg/kg cumulative): 438 ± 102 ng/mL | Blood THC level, single bolus ([1]; THC 30 mg/kg): 456 ± 83 ng/mL | Blood THC level, cumulative dosing ([1]; THC 56 mg/kg cumulative): 1315 ± 386 ng/mL | Blood THC level, single bolus ([1]; THC 56 mg/kg): 1054 ± 184 ng/mL | WIN55,212-2-stimulated [35S]GTPγS binding vs vehicle control (study 1, Figure 5) ([2]; FAAH+/+ and FAAH−/− mice, caudate putamen, hippocampus, cerebellum): significantly reduced | Net WIN55,212-2-stimulated [35S]GTPγS binding, Caudate-Putamen [2, 5]: 97 ± 16 nCi/g | Net WIN55,212-2-stimulated [35S]GTPγS binding, Cerebellum [2, 5]: 138 ± 21 nCi/g | Net WIN55,212-2-stimulated [35S]GTPγS binding, Globus Pallidus [2, 5]: 539 ± 41 nCi/g | Net WIN55,212-2-stimulated [35S]GTPγS binding, Hippocampus [2, 5]: 65 ± 14 nCi/g | Net WIN55,212-2-stimulated [35S]GTPγS binding, PAG [2, 5]: 55 ± 13 nCi/g | Net WIN55,212-2-stimulated [35S]GTPγS binding, Substantia Nigra [2, 5]: 506 ± 32 nCi/g | Specific [3H]WIN55,212-2 binding, Caudate-Putamen [3]: 0.82 ± 0.11 pCi/g | Specific [3H]WIN55,212-2 binding, Cerebellum [3]: 1.19 ± 0.12 pCi/g | Specific [3H]WIN55,212-2 binding, Globus Pallidus [3]: 1.55 ± 0.12 pCi/g | Specific [3H]WIN55,212-2 binding, Hippocampus [3]: 0.49 ± 0.07 pCi/g | Specific [3H]WIN55,212-2 binding, PAG [3]: 0.43 ± 0.07 pCi/g | Specific [3H]WIN55,212-2 binding, Substantia Nigra [3]: 2.25 ± 0.20 pCi/g

Cc1c(C(=O)c2cccc3ccccc23)c2cccc3c2n1[C@H](CN1CCOCC1)CO3 [WIN, WIN55,212-2]
Emax of agonist-stimulated [35S]GTPγS binding ([4]; spinal cord membranes from AEA-treated FAAH−/− mice): 33 ±3.2 % Stim | Emax as percent of that obtained in vehicle-treated mice ([4]; spinal cord membranes from AEA-treated mice): 85% | Emax of agonist-stimulated [35S]GTPγS binding ([4]; spinal cord membranes from THC-treated FAAH−/− mice): 27 ± 1.4 % Stim | Emax as percent of that obtained in vehicle-treated mice ([4]; spinal cord membranes from THC-treated mice): 72% | Emax of agonist-stimulated [35S]GTPγS binding ([4]; spinal cord membranes from vehicle-treated FAAH−/− mice): 39 ± 3.1 % Stim
